Data as given in patent publication US10463649B2, “Inhibitors of Mc1-1 as drugs to overcome resistance to BRAF inhibitors and MEK inhibitors” (Texas Tech University System, priority 2015, dated 2019).

Key:
A375-R cells = assay: Tumor therapy: A375-R xenografts in athymic nude mice; type: in vivo; conditions: day 30, vemurafenib 25 mg/kg twice a day oral, TW-37 30 mg/kg i.p. thrice a week, Mcl-1 siRNA intratumoral twice a week
A375 cells = assay: Cell viability / cytotoxicity by sulforhodamine B (SRB) assay in A375 cells
Mcl-1 = assay: Western blotting for Mcl-1 expression in SK-MEL-28 cells; type: cell-based; conditions: 72 hours
Description: Each study was performed three times independently.

CCCS(=O)(=O)Nc1ccc(F)c(C(=O)c2c[nH]c3ncc(-c4ccc(Cl)cc4)cc23)c1F [vemurafenib]
Average tumor volume (A375-R cells): 1688±156.19 mm3 | Reduction of cell survival (A375 cells; A375 cells, 0.2 μM vemurafenib, 72 hours): about 55% | IC50 (A375 cells; Homo sapiens, A-375, 72 h, read-out: IC50 of vemurafenib): 100 nM | Increase in expression of Mcl-1 (Mcl-1; 0.1 μM vemurafenib): 10 fold | Increase in expression of Mcl-1 (Mcl-1; 0.2 μM vemurafenib): 11 fold | Increase in expression of Mcl-1 (Mcl-1; 0.4 μM vemurafenib): 14 fold
